# Where “and” joins values, the source holds several entries; their conditions need not be identical. Identical values can stand only once. The entries are a selection whose mix differs from that of the whole data set. Inconclusive results are not listed. Calls of active or inactive are those of the source. Unless noted, the rule behind the calls is not given here.
# Experiments:
# [1] = viability loss in pontine glioma line – cell-based, SU-DIPG-XVII, MIPE5.0, CellTiter-Glo, qHTS, dose response (AID 1347060; cut-off not given, nearly all actives have AC50 up to about 26 µM;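 note: cells exposed to compound for 48 hours before viability readout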); conditions: CellTiter-Glo ATP luminescence
# [2] = viability loss in pontine glioma line – cell-based, SU-DIPG-XXV, MIPE5.0, CellTiter-Glo, qHTS, dose response (AID 1347065; cut-off not given, nearly all actives have AC50 up to about 26 µM;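 note: cells exposed to compound for 48 hours before ATP readout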); conditions: CellTiter-Glo ATP luminescence
# [3] = JHH-DIPG-1 glioma cell viability, MIPE5.0 library, CellTiter-Glo luminescence, qHTS (AID 1347067; cut-off not given, nearly all actives have AC50 up to about 26 µM;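 note: cells exposed to compound for 48 hours before readout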); conditions: JHH-DIPG-1 glioma viability, CellTiter-Glo ATP luminescence
# [4] = growth inhibition of DIPG cells – cell-based, MIPE5.0 library, qHTS (AID 1347068; cut-off not given, nearly all actives have IC50 up to about 30 µM;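 for IC50: cells exposed to compound for 48 hours before viability readout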); conditions: SU-DIPG-XXV viability
# [5] = Wnt pathway potentiators raising nuclear beta-catenin – imaging, WNT3A-conditioned medium, mouse C2C12, NPC library, primary screen (AID 1117326; in the data active = nuclear beta-catenin stimulation mostly above about 4.2%, no sharp cut-off; inactive = mostly below about 10%; note: reference of the scale not given here); conditions: at 10 µM, stronger effect = higher value
# [6] = stimulators of insulin release from INS-1E, primary screen, cell-based, 5 mM glucose, NPC library (AID 1117329;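 active = compound raises insulin release from rat beta cells at 5 mM glucose, no numeric limit stated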; note: reference of the scale not given here); conditions: rat INS-1E insulin secretion, at 10 µM, stronger effect = higher value
# [7] = growth inhibition of GSK3B-pretreated HCT116 cells – cell-based, CellTiter-Glo, 0.2 to 20 µM (AID 1117336;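 active = compounds lowering colon cancer cell viability after pretreatment blocking the GSK3B kinase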); conditions: HCT116 viability after GSK3B inhibitor, at 20 µM, stronger effect = higher value
# [8] = inhibition of endothelial tube formation, primary screen, imaging, VEGF stimulated, CD31 staining, tube area, NPC library (AID 1117340;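 active = compound that reduces growth-factor-driven endothelial tube area in a mixed cell culture, no cutoff stated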); conditions: VEGF-stimulated ADSC/ECFC co-culture, at 10 µM, stronger effect = higher value
# [9] = GLP1 release stimulators, primary, NCI-H716, NPC library (AID 1117341;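 active = compound raises GLP1 secretion from the human gut endocrine cells, with no numeric limit stated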; note: reference of the scale not given here); conditions: NCI-H716 cells, at 10 µM, stronger effect = higher value
# [10] = HCT116 colon cancer cell growth inhibition, primary screen, CellTiter-Glo luminescence, NPC library (AID 1117342;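 active = compounds that lower survival of HCT116 colon cancer cells in the luminescence readout, no numeric limit stated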); conditions: at 20 µM (top of the series)
# [11] = reduced SW480 viability measured with CellTiter-Glo, NPC library, primary (AID 1117343;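 active = compounds that lower viability of the colon cancer cells in the luminescence readout, with no numeric limit stated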); conditions: CellTiter-Glo luminescence; at 20 µM (top of the series)
# [12] = NPC library primary testing for decreased DLD-1 cell viability via CellTiter-Glo (AID 1117346;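 active = compounds that lower survival of DLD-1 colon cancer cells in the luminescence readout, no cutoff given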); conditions: DLD-1 viability, CellTiter-Glo luminescence; at 20 µM (top of the series)
# [13] = viability loss in pontine glioma line – cell-based, SU-DIPG-XIII, MIPE4.0, CellTiter-Glo, qHTS, dose response (AID 1347061; cut-off not given, nearly all actives have AC50 up to about 37 µM;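 note: cells exposed to compound for 48 hours before readout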); conditions: CellTiter-Glo ATP luminescence
# [14] = viability loss in pontine glioma line – cell-based, JHH-DIPG-1, MIPE4.0, CellTiter-Glo, qHTS, dose response (AID 1347062; cut-off not given, nearly all actives have AC50 up to about 27 µM); conditions: JHH-DIPG-1 viability, CellTiter-Glo ATP luminescence
# [15] = viability loss in pontine glioma line – cell-based, SU-DIPG-IV, MIPE4.0, CellTiter-Glo, qHTS, dose response (AID 1347063; cut-off not given, nearly all actives have AC50 up to about 30 µM;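 note: compound exposure lasted 48 hours before the viability readout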); conditions: CellTiter-Glo ATP luminescence
# [16] = growth inhibition of DIPG cells – cell-based, MIPE4.0 library, CellTiter-Glo luminescence, qHTS (AID 1347066; cut-off not given, nearly all actives have AC50 up to about 30 µM;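 note: cells exposed to compound for 48 hours before readout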); conditions: SU-DIPG-VI viability, CellTiter-Glo ATP luminescence
# [17] = compounds altering circadian rhythm period length – cell-based, LOPAC library, luminescence reporter (AID 2774); conditions: circadian reporter cells, at 7 µM, actives lie on both sides;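 note: values are relative to mean of DMSO wells on each plate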
# [18] = system: Aerobactin synthetase IucA (Klebsiella pneumoniae, hypervirulent); experiment: biochemical IucA inhibition screen of LOPAC library by absorbance (AID 1346212); conditions: IucA enzyme assay, absorbance (OD) readout; stronger effect = lower value;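 tested at 8 µM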;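 note: 100% = no compound wells and 0% = no enzyme wells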
compound,measurement,setting,value
N[C@@H](Cc1ccc([N+]([O-])(CCCl)CCCl)cc1)C(=O)O,AC50,[1],active: 11.8 µM
same,AC50,[2],active: 26.3 µM
same,AC50,[3],active: 2.95 µM
same,IC50,[4],active: 23.5 µM
NC(=O)Nc1ccc([As](=O)(O)O)cc1,nuclear beta-catenin stimulation,[5],inactive: 0.6%
same,insulin secretion stimulation,[6],inactive: -2%
same,viability decrease,[7],inactive: -3.5%
same,tube area decrease,[8],inactive: -20.7%
same,GLP1 secretion stimulation,[9],inactive: -0.9%
same,inhibition of viability,[10],inactive: -8.3%
same,viability decrease (inhibition),[11],active: 82.1%
same,viability decrease (inhibition),[12],inactive: 8.6%
CN(C(=O)Cc1ccc(Cl)c(Cl)c1)[C@H]1CC[C@@]2(CCCO2)C[C@@H]1N1CCCC1,nuclear beta-catenin stimulation,[5],inactive: 2.2%
same,insulin secretion stimulation,[6],inactive: 10%
same,viability decrease,[7],inactive: -6.3%
same,tube area decrease,[8],inactive: 5.3%
same,GLP1 secretion stimulation,[9],inactive: -0.9%
same,inhibition of viability,[10],inactive: 42.7%
same,viability decrease (inhibition),[11],inactive: 42.1%
same,viability decrease (inhibition),[12],inactive: 17.9%
CN(C)C1(c2ccccc2)CCC2(CC1)OCCc1c2[nH]c2ccc(F)cc12 (stereo not drawn),AC50,[1],active: 5.9 µM
same,AC50,[2],active: 9.34 µM
same,AC50,[3],active: 8.33 µM
same,outcome,[4],inactive
CCn1c(=O)n([C@@H]2CCN(CC3CCCCCCC3)C[C@H]2CO)c2ccccc21,outcome,[13],inactive
same,outcome,[14],inactive
same,outcome,[15],inactive
same,outcome,[16],inactive
same,outcome,[4],inactive
CN(C(=O)Cc1ccc(Cl)c(Cl)c1)[C@@H]1CCCC[C@H]1N1CCCC1,period change,[17],inactive: -0.02 h
CN(CCCl)Cc1cc(Cl)c(NC2=NCCN2)c(Cl)c1,period change,[17],inactive: 0.155 h
same,remaining activity,[18],inactive: 117%
CN(C(=O)Cc1ccc(Cl)c(Cl)c1)[C@@H]1CC[C@]2(CCCO2)C[C@H]1N1CCCC1,period change,[17],inactive: -0.04 h
same,remaining activity,[18],inactive: 104%
CN(C(=O)Cc1ccc(Cl)c(Cl)c1)[C@@H]1CCCC[C@@H]1N1CCCC1,period change,[17],inactive: -0.075 h
same,remaining activity,[18],inactive: 123%
CN(C(=O)Cc1ccccc1)[C@@H]1CC[C@]2(CCCO2)C[C@H]1N1CCCC1,period change,[17],inactive: -0.025 h
CN(C(=O)Cc1ccc(Cl)c(Cl)c1)[C@H]1CCCC[C@@H]1N1CCCC1,period change,[17],inactive: 0.09 hour and inactive: 0.02 hour
same,remaining activity,[18],inactive: 98.4%
CN(C(=O)Cc1ccccc1)[C@H]1CC[C@@]2(CCCO2)C[C@@H]1N1CCCC1,nuclear beta-catenin stimulation,[5],inactive: 3.8%
same,insulin secretion stimulation,[6],inactive: 2.2%
same,viability decrease,[7],inactive: 15.2%
same,tube area decrease,[8],inactive: -5.8%
same,GLP1 secretion stimulation,[9],inactive: 1.9%
same,inhibition of viability,[10],inactive: 5.9%
same,viability decrease (inhibition),[11],inactive: -9.8%
same,viability decrease (inhibition),[12],inactive: -7.7%
same,remaining activity,[18],inactive: 112%

# From PubChem BioAssay
